“Also recorded” adds a separate entry of the source.
Test system: p38 MAPK
Test: phospho-p38 MAPK (p-p38) level in human HSCs during ex vivo culture, flow cytometry
Type: cell-based
Settings: ex vivo cultures of human MPB CD34+ cells, LV or RV transduced, with vs without inhibitor

Cc1ccc(-n2nc(C(C)(C)C)cc2NC(=O)Nc2ccc(OCCN3CCOCC3)c3ccccc23)cc1 [BIRB-796, 1-[5-tert-butyl-2-(4-methylphenyl)pyrazol-3-yl]-3-[4-(2-morpholin-4-ylethoxy)naphthalen-1-yl]urea]
p-p38 in hHSCs: decreased; also recorded: significantly decreases | p-p38 in hHSCs (listed as p38i): significantly lower

Source: patent US20180325947A1 (published 2018)
